Like-named read-outs stand apart in the source and are kept apart here.
Legend:
[1] = target: hGPR6 (Homo sapiens, UniProt P46095); details: HEK GPR6 cell line; listed as DPI
[2] = target: GPR6 R220Y mutant (Homo sapiens, UniProt P46095, R220Y); test: cAMP accumulation, GPR6 R220Y mutant receptor; type: cell-based
[3] = target: GPR3 Y188R mutant (Homo sapiens, UniProt P46089, Y188R); details: compared to wildtype GPR3
[4] = target: T1, hGPR12 (Homo sapiens, UniProt P47775); details: HEK GPR12 cell line; listed as DPI
T1 sequence (P47775 1-334): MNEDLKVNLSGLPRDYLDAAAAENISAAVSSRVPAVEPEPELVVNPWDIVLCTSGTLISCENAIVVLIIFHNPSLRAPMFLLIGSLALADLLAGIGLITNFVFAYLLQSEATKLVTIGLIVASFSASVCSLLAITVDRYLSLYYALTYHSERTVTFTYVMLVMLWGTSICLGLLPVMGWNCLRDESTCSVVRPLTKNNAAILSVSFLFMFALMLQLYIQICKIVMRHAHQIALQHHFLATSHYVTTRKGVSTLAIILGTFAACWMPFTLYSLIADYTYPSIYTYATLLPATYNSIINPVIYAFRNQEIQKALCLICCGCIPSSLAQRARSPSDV

Chains of the proteins cited; added tags and fusions are not shown.
UniProt P46095, whole entry R220Y: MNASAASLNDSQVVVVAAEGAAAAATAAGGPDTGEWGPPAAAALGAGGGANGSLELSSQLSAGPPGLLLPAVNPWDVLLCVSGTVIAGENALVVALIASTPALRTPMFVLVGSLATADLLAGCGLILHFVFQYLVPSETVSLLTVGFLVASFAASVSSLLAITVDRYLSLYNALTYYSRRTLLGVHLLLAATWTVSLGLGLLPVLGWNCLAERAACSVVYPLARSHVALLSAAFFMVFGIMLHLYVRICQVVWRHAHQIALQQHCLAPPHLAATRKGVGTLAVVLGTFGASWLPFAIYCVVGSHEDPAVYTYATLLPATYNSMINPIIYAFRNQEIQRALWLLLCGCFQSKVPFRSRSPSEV
UniProt P46089, whole entry Y188R: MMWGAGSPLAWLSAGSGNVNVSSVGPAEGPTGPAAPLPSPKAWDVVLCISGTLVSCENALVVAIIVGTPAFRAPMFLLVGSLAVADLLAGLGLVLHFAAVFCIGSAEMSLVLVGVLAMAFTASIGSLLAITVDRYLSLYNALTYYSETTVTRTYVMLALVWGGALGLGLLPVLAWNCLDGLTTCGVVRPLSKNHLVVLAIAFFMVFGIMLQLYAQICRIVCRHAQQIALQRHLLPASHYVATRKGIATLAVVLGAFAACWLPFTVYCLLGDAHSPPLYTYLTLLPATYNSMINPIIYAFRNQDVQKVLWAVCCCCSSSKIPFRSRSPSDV

## [Cl-].c1ccc2c(c1)[I+]c1ccccc1-2 [Compound 1, diphenyleneiodonium (DPI) chloride]
[1]
  increase of cAMP response over basal levels: but not GPR6, GPR12, or in HEK293 cells alone
[2]
  activity in GPR6 R220Y mutant: did not confer activity
[2]; listed as DPI
  activity in GPR6 R220Y mutant: no activity
[3]
  cAMP accumulation in GPR3 Y188R mutant: able to increase cAMP accumulation in the GPR3 Y188R mutant similar to the wildtype receptor
[3]; listed as DPI
  cAMP accumulation in GPR3 Y188R mutant: retained activity
[4]
  increase of cAMP response over basal levels: but not GPR6, GPR12, or in HEK293 cells alone

From article PMC10631289 (Bioorganic & medicinal chemistry letters, 2023)
